Molecular target: Tyrosine-protein kinase SYK (Homo sapiens, UniProt P43405)

Row | IC50 | SMILES
1 | 60.9 nM | C[C@@H](Oc1cc(-c2ccc(N3CCOCC3)c(C(F)(F)F)c2)cc2nn(C)cc12)[C@H]1CNC(=O)C1
2 | 732 nM | C[C@@H](Oc1nc(-c2cn(C(F)F)cn2)cc2nn(C)cc12)[C@H]1CNC(=O)C1
